Measurements from ChEMBL document CHEMBL4725319, “Discovery of attenuation effect of orexin 1 receptor to aversion of nalfurafine: Synthesis and evaluation of D-nor-nalfurafine derivatives and analyses of the three active conformations of nalfurafine” (Bioorg Med Chem Lett, 2020).

Tests used:
[1] = Toxicity in OX1R knock out mouse assessed as increase in conditioned place aversion at 1 to 4 mg/kg, sc; conditions: in vivo
[2] = Toxicity in mouse assessed as increase in conditioned place aversion at 1 to 4 mg/kg, sc; conditions: in vivo

Q: For `CN(C(=O)Cc1ccc(Cl)c(Cl)c1)C1CCCCC1N1CCCC1` (configuration not stated), which Activity [1] is on record?
A: The Activity was “Toxic”.

Q: What about the Activity [2] of the same molecule?
A: Its Activity is “Toxic”.
